A word on the IC50: it is the concentration needed to halve the response being measured.

Chains of the proteins cited; added tags and fusions are not shown.
UniProt P10415, whole entry: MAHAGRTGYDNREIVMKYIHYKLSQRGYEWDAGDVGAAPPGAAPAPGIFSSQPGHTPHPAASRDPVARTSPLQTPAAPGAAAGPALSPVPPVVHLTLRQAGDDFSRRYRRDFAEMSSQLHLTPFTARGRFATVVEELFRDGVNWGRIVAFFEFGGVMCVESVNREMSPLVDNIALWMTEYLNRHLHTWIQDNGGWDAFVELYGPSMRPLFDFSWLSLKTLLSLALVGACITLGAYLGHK

Where a name gives a salt, the structure may show the parent alone.

The experiment concerns the target Bcl-2 protein (Homo sapiens (Human), UniProt P10415). As to the kind of experiment: Inhibition of Bcl-2 by the fluorescence polarisation technique. Type of experiment: binding. The settings on record: Bcl-2 inhibition, fluorescence polarisation test; read-out: IC50 (nM) Bcl-2 FP. The procedure: The fluorescence polarisation tests were carried out on microplates (384 wells). […] After incubation for 2 hours, the fluorescence polarisation is measured.
A general note: Fluorescence polarisation rises when a labelled molecule tumbles more slowly, as on binding a larger partner.

As for `Cn1ccc2ccc(N(C(=O)c3cc(-c4cc(Cl)ccc4C(=O)N4Cc5ccccc5C[C@H]4CN4CCOCC4)n4c3CCCCC4)c3ccc(O)cc3)cc21` [Example 83, 3-{5-Chloro-2-[((3S)-3-(4-morpholinylmethyl)-3,4-dihydro-2(1H)-isoquinolinyl)carhonyl]phenyl}-N-(4-hydroxyphenyl)-N-(1-methyl-1H-indol-6-yl)-6,7,8,9-tetrahydro-5H-pyrrolo[1,2-a]azepine-1-carboxamide hydrochloride], the concentration for half-maximal inhibition (IC50) came to 18 nM.

For the origin of these results see patent US9603854B2, “Indolizine compounds, a process for their preparation and pharmaceutical compositions containing them” (LES LABORATOIRES SERVIER, priority 2012, dated 2017).
